Results reported in ChEMBL document CHEMBL3039007, “Structure-based identification of OATP1B1/3 inhibitors” (Mol Pharmacol, 2013).

Protein sequences, listed by entry. Tags and fused reporters are not part of them. Lines headed by an entry give the natural chain unless they say otherwise; changes in a name come on top.
UniProt Q9Y6L6: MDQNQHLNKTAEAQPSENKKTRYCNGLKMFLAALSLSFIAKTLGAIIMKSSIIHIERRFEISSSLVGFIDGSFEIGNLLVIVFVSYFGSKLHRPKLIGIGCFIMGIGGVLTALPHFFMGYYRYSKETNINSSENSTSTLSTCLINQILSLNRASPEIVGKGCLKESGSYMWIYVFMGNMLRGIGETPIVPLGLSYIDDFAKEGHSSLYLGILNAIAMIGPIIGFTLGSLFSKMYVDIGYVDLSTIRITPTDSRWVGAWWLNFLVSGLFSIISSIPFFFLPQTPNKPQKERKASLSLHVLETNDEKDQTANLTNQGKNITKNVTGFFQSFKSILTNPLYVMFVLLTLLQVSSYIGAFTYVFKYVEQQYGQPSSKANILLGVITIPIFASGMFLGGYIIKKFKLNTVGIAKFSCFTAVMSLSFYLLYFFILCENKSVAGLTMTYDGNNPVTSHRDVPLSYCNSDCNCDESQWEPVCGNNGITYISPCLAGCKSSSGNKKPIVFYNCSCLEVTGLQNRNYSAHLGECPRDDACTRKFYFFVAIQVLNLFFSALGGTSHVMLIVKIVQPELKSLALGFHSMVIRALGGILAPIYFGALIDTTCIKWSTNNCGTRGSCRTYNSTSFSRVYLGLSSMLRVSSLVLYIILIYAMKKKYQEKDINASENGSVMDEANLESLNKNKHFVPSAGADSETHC

Biological target: Solute carrier organic anion transporter family member 1B1 (Homo sapiens, UniProt Q9Y6L6)

Ki: 1070 nM
SMILES: CC1(C)[C@@H](OC(=O)CCC(=O)O)CC[C@]2(C)[C@H]3C(=O)C=C4[C@@H]5C[C@@](C)(C(=O)O)CC[C@]5(C)CC[C@@]4(C)[C@]3(C)CC[C@@H]12 [CARBENOXOLONE SODIUM]
